The record followed here is PMC6010140, “Design, synthesis and docking study of novel coumarin ligands as potential selective acetylcholinesterase inhibitors” (Journal of Enzyme Inhibition and Medicinal Chemistry, 2017).

Protein sequences, listed by entry. Tags and fused reporters are not part of them. Residues count along the entry.
UniProt O42275, 24-633: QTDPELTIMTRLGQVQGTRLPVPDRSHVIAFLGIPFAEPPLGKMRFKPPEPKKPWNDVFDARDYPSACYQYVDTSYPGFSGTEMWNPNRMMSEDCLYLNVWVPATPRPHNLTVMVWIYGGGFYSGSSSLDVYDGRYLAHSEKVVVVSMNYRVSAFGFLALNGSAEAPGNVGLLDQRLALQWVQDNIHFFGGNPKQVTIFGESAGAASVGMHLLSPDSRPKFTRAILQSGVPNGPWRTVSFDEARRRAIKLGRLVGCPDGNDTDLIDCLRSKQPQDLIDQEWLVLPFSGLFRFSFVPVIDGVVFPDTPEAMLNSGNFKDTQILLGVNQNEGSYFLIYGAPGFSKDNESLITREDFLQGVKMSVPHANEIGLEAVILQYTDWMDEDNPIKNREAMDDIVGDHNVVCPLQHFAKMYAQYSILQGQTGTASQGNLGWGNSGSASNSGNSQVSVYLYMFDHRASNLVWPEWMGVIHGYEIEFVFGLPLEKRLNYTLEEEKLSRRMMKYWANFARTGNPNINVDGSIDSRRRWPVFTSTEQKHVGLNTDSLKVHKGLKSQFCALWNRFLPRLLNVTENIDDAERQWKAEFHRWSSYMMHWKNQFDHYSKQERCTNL
UniProt P81908, whole entry: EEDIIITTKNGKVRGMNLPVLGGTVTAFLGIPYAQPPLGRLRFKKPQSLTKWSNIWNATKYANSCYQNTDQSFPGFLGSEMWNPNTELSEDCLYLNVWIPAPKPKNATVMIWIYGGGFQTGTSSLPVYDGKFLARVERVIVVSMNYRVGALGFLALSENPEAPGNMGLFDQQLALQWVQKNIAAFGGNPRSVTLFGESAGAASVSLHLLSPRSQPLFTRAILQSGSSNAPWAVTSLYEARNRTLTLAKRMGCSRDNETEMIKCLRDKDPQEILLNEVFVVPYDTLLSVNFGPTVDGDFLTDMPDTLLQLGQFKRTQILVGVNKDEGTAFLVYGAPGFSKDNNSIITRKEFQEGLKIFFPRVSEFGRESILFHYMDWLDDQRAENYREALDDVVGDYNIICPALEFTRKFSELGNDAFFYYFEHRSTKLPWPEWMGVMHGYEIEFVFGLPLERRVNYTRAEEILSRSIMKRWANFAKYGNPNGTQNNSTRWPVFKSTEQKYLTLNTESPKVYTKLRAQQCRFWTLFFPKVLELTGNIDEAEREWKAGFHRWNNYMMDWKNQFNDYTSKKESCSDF

Where two headings read alike, the source gives them in different places.

For data set [1], the target named is electric eel acetylcholinesterase (AChE, Type-VI-S, EC 3.1.1.7) (Electrophorus electricus, UniProt O42275). Description: biochemical. The following applies: for Selectivity index: IC50 (BuChE)/IC50 (AChE). On the procedure:
(§1) The substrates of the reaction were acetylthiocholine iodide and butyrylthiocholine iodide. […] The reaction was initiated by the addition of 10 µL (7.1 mM) acetylthiocholine iodide (or 0.79 mM butyrylthiocholine iodide).

In data set [2] the target is horse serum butyrylcholinesterase (BuChE, EC 3.1.1.8) (Equus caballus, UniProt P81908). Nature of the data set: biochemical. The procedure:
as §1

Data set [3] in a line: in vitro. The conditions noted are these: rat, H4IIE hepatoma cells.
Data set [4] deals with AChE (Electrophorus electricus, UniProt O42275). Nature of the data set: biochemical. The procedure:
The plots were assessed by a weighted least-squares analysis that assumed the variance of velocity (v) to be a constant percentage of v for the entire data set.

[5] abbreviates: read-out: AChE IC50, means ± SEM of three parallel measurements.
[6] abbreviates: read-out: BuChE IC50, means ± SEM of three parallel measurements.

Take “2-(Diisopropylamino)-N-(4-(2-oxo-2H-chromen-3-yl)thiazol-2-yl)acetamide [Compound 6e]”: the Selectivity index in data set [1] worked out at 19.66. Further, the 50% inhibitory concentration (IC50) (usually the concentration that gives 50% inhibition) in data set [1] (setting [5]) came to 2.29 ± 0.001 µM; in data set [2] (setting [6]), 45.02 ± 0.01 µM.
In data set [1], `CNCC(=O)Nc1nc(-c2cc3ccccc3oc2=O)cs1` [Compound 6a, 2-(Methylamino)-N-(4-(2-oxo-2H-chromen-3-yl)thiazol-2-yl)acetamide] gave an IC50 of 2.36 ± 0.003 µM and a Selectivity index of 51.58. Also, the 50% inhibitory concentration (IC50) in data set [2] amounted to 121.72 ± 0.02 µM.
The matching figures for `CCCNCC(=O)Nc1nc(-c2cc3ccccc3oc2=O)cs1` [Compound 6b, N-(4-(2-oxo-2H-chromen-3-yl)thiazol-2-yl)-2-(propylamino)acetamide]: 2.15 ± 0.002 µM, 88.05 and 189.3 ± 0.05 µM.
With `CCN(CC)CC(=O)Nc1nc(-c2cc3ccccc3oc2=O)cs1` [Compound 6c, 2-(Diethylamino)-N-(4-(2-oxo-2H-chromen-3-yl)thiazol-2-yl)acetamide], in data set [3], the viability (as a rule, a read-out of living cells in per cent, often relative to untreated cells) at 24 h, 0.07 µM came to 130 ± 5.1%; the viability at 24 h, 0.15 µM amounted to 106 ± 2.4%; the viability at 24 h, 0.3 µM was 101 ± 0.9%; the viability at 24 h, 0.6 µM was 78 ± 7.3%. Besides, in data set [3], the viability at 24 h, 1.25 µM was 56 ± 5% and the viability at 24 h, 2.5 µM was 38 ± 4.1%. Further, the Ki (in general, a measure of affinity in units of concentration, obtained from inhibition or displacement) in data set [4] turned out to be 0.031 µM. In data set [1], this compound returned a concentration for half-maximal inhibition (IC50) of 0.043 ± 0.002 µM and a Selectivity index of 4151.16. For the same compound, in data set [1] (ratio of IC50 values), the “AChE inhibition relative to PBI-1” value is reported as ~90 fold, the “AChE inhibition relative to PBI-2” value was ~107 fold, the “AChE inhibition relative to galantamine” value was found to be 56 fold and the “AChE inhibition relative to rivastigmine” value is reported as 70 fold. In addition, the “AChE inhibition relative to tacrine” value in data set [1] (ratio of IC50 values) came out at 4 fold. In data set [2], the IC50 came out at 178.5 ± 0.03 µM.
Turning to `CCCCN(CCCC)CC(=O)Nc1nc(-c2cc3ccccc3oc2=O)cs1` [Compound 6d, 2-(Dibutylamino)-N-(4-(2-oxo-2H-chromen-3-yl)thiazol-2-yl)acetamide], in data set [1], it took 1.71 ± 0.002 µM to reach half-maximal inhibition (IC50) and the Selectivity index stood at 105.44. The compound further yielded a concentration for half-maximal inhibition (IC50) in data set [2] of 180.3 ± 0.1 µM.
On to `O=C(CNC1CCCCC1)Nc1nc(-c2cc3ccccc3oc2=O)cs1` [Compound 6f, 2-(Cyclohexylamino)-N-(4-(2-oxo-2H-chromen-3-yl)thiazol-2-yl)acetamide], for which, in data set [1], the midpoint of inhibition, the IC50, lay at 3.05 ± 0.002 µM and the Selectivity index is 55.14. In data set [2], this compound showed a half-maximal inhibitory concentration (IC50) of 168.2 ± 0.4 µM.
The matching figures for `O=C(CN1CCCC1)Nc1nc(-c2cc3ccccc3oc2=O)cs1` [Compound 6g, N-(4-(2-oxo-2H-chromen-3-yl)thiazol-2-yl)-2-(pyrrolidin-1-yl)acetamide]: 1.41 ± 0.001 µM, 67.95 and 95.81 ± 0.36 µM.
In the same order, the values of `O=C(CN1CCCCC1)Nc1nc(-c2cc3ccccc3oc2=O)cs1` [Compound 6h, N-(4-(2-oxo-2H-chromen-3-yl)thiazol-2-yl)-2-(piperidin-1-yl)acetamide] are 0.73 ± 0.001 µM, 31.37 and 22.9 ± 0.12 µM.
In the same order, the values of `CN1CCN(CC(=O)Nc2nc(-c3cc4ccccc4oc3=O)cs2)CC1` [Compound 6i, 2-(4-Methylpiperazin-1-yl)-N-(4-(2-oxo-2H-chromen-3-yl)thiazol-2-yl)acetamide] are 0.61 ± 0.001 µM, 12.16 and 7.42 ± 0.23 µM.
Consider `O=C(CN1CCOCC1)Nc1nc(-c2cc3ccccc3oc2=O)cs1` [Compound 6j, 2-Morpholino-N-(4-(2-oxo-2H-chromen-3-yl)thiazol-2-yl)acetamide], for which the Selectivity index in data set [1] worked out at 48.33. In addition, the 50% inhibitory concentration (IC50) in data set [1] (setting [5]) was 3.78 ± 0.003 µM; in data set [2] (setting [6]) it was 182.7 ± 0.03 µM.
In data set [1], `O=C(CNC1Cc2ccccc2C1)Nc1nc(-c2cc3ccccc3oc2=O)cs1` [Compound 6k, 2-((2,3-Dihydro-1H-inden-2-yl)amino)-N-(4-(2-oxo-2H-chromen-3-yl)thiazol-2-yl)acetamide] displayed an IC50 of 0.92 ± 0.001 µM and a Selectivity index of 190.54. Besides, the IC50 in data set [2] was determined as 175.3 ± 0.15 µM.
In data set [1], `O=C(CNCCN1CCCC1)Nc1nc(-c2cc3ccccc3oc2=O)cs1` [Compound 6l, N-(4-(2-oxo-2H-chromen-3-yl)thiazol-2-yl)-2-((2-(pyrrolidin-1-yl)ethyl)amino)acetamide] showed an IC50 of 0.17 ± 0.001 µM and a Selectivity index of 13.82. This compound also had a half-inhibitory concentration (IC50) in data set [2] of 2.35 ± 0.65 µM. For the same compound, in data set [2] (ratio of IC50 values), the “BuChE inhibition relative to donepezil” value worked out at 2 fold and the “BuChE inhibition relative to galanthamine” value came to 7.5 fold.
Consider `O=C(CNCCN1CCOCC1)Nc1nc(-c2cc3ccccc3oc2=O)cs1` [Compound 6m, 2-((2-Morpholinoethyl)amino)-N-(4-(2-oxo-2H-chromen-3-yl)thiazol-2-yl)acetamide], for which the figures for the half-inhibitory concentration (IC50) in data set [1] and in data set [2] were 0.09 ± 0.001 µM and 157 ± 2.27 µM, respectively. In addition, the Selectivity index in data set [1] is 1747.67.
The matching figures for `O=C(CNCCC1=CCCCC1)Nc1nc(-c2cc3ccccc3oc2=O)cs1` [Compound 6n, 2-((2-(Cyclohex-1-en-1-yl)ethyl)amino)-N-(4-(2-oxo-2H-chromen-3-yl)thiazol-2-yl)acetamide]: 10.24 ± 0.001 µM, 186.7 ± 0.36 µM and 18.23.
The matching figures for `COc1ccc(CCNCC(=O)Nc2nc(-c3cc4ccccc4oc3=O)cs2)cc1OC` [Compound 6o, 2-((3,4-Dimethoxyphenethyl)amino)-N-(4-(2-oxo-2H-chromen-3-yl)thiazol-2-yl)acetamide]: 13.53 ± 0.001 µM, 189 µM and 14.00.
On to `O=C(CNCc1ccc2c(c1)OCO2)Nc1nc(-c2cc3ccccc3oc2=O)cs1` [Compound 6p, 2-((Benzo[d][1,3]dioxol-5-ylmethyl)amino)-N-(4-(2-oxo-2H-chromen-3-yl)thiazol-2-yl)acetamide], for which, in data set [1], half-maximal inhibition (IC50) was put at 0.74 ± 0.001 µM and the Selectivity index is recorded as 81.55. In data set [2], this compound gave an IC50 of 60.35 ± 0.03 µM.
The matching figures for `O=C(CNN1CCOCC1)Nc1nc(-c2cc3ccccc3oc2=O)cs1` [Compound 6q, 2-(Morpholinoamino)-N-(4-(2-oxo-2H-chromen-3-yl)thiazol-2-yl)acetamide]: 2.52 ± 0.005 µM, 60.42 and 152.2 ± 0.75 µM.
The matching figures for `CN1CCN(NCC(=O)Nc2nc(-c3cc4ccccc4oc3=O)cs2)CC1` [Compound 6r, 2-((4-Methylpiperazin-1-yl)amino)-N-(4-(2-oxo-2H-chromen-3-yl)thiazol-2-yl)acetamide]: 1.12 ± 0.003 µM, 7.32 and 8.2 ± 0.59 µM.
In the case of “N-(4-(2-oxo-2H-chromen-3-yl)thiazol-2-yl)-2-(piperidin-1-ylamino)acetamide [Compound 6s]”, the Selectivity index in data set [1] stood at 18.54. Further, the half-maximal inhibitory concentration (IC50) in data set [1] (setting [5]) was 0.82 ± 0.002 µM; in data set [2] (setting [6]), 15.2 ± 0.82 µM.
